Measured values taken from US12550885B2, “Red blood cell storage solutions, solution additives, and methods for improving the storage of red blood cells” (University of Cincinnati, priority 2016, dated 2026).

Tested on: C57BL/6 mice
Test: Lung endothelial permeability after transfusion of aged pRBCs (Evans blue method)
Format: in vivo, mouse
Conditions: 200 μl IV aged pRBCs treated with 125 μM AT, 6 hours after transfusion
Experimental: Male C57BL/6 mice aged 8-10 weeks were purchased from Jackson Laboratories, fed standard laboratory diet and water ad libitum, and acclimated for 1 week in climate-controlled conditions with 12 hours light-dark cycles prior to use. Asm-deficient mice (Asm^−/−) on a C57BL/6 background were used and compared to syngenic C57Bl/6 wild type mice as controls. All experiments were approved by the Institutional Animal Care and Use Committee at the University of Cincinnati. To study the effect of AT treatment on lung inflammation following blood transfusion, mice received 200 μl IV injections of pRBCs or MPs. Lungs were taken 6 hours after transfusion for either histologic or Evans blue evaluation. Histologic lung sections were examined for evidence of lung edema with hematoxylin and inflammatory cells with anti-Gr1 antibodies (AbD Serotec, Raleigh, NC). Tight junction integrity was assessed by staining lung slides with Cy3-conjugated anti-ZO1 (Jackson ImmunoResearch, West Grove, PA). Endothelial cell permeability was assessed using the Evans blue method (source). In brief, mice were weighed and injected with 30 mg/kg Evans blue. […] Evans blue extraction calculated by measuring the optical density at 620 nm and comparing to a standard curve, and values were normalized to dry lung weight.

CN(C)CCC=C1c2ccccc2CCc2ccccc21 [AT, Amitriptyline]
Evans blue capillary leak in the lungs: an effect not seen
